Measurements: article PMC4684357, “Comparative Evaluation of the Antimicrobial Activity of Different Antimicrobial Peptides against a Range of Pathogenic Bacteria” (PLoS ONE, 2015)

Columns and labels:
[1] = test system: E. coli ATCC25922; type: cell-based, Escherichia coli; conditions: E. coli ATCC25922 wild-type (Table 8, LPS series); CLSI; triplicates
Description: The Yersinia ruckeri strain was kindly provided by Prof. Kurt Buchmann, University of Copenhagen, Faculty of Health and Medical Sciences, and the Flavobacterium psychrophilum strain was kindly provided by Prof. Inger Dalsgaard, DTU, Denmark. BW25113 is the Escherichia coli wild-type strain, a derivative of the F^-,λ^- E. coli K12 strain BD792 which was used in generating the KEIO collection. E. coli ATCC25922 is a clinical isolate, serotype O6 and is often used as control strain in antimicrobial susceptibility testing. All strains were grown in Mueller-Hinton-II medium, except L. monocytogenes which was grown in BHI medium and F. psychrophilum which was grown in TYES medium (Tryptone yeast extract plus salts). […]
(§1) Briefly, liquid Mueller-Hinton-II medium containing increasing concentrations of AMPs is inoculated with a defined number of cells (approx. 10^5 CFUs/ml) in 96-well microtiter plates (polypropylene), whereas each plate also includes a positive growth control and a negative control (sterile control). After incubation, the MIC is determined by the lowest concentration showing no visible growth. […]
All the MIC measurements were carried out in duplicate. The MIC of the reference antibiotics was determined by the use of Sensititre panels (Trek Diagnostic Systems Ltd, East Grinstead, UK).

[2] = test system: E. coli ATCC25922; conditions: test strain E. coli ATCC25922, average of five independent experiments
Procedure: as §1, with “The minimum inhibitory concentrations (MICs) of the AMPs were measured in 96-well microtiter plates according to the Clinical and Laboratory Standards Institute (CLSI, formerly National Committee for Clinical Laboratory Standards [NCCLS]). Briefly,” for “Briefly,”, “growth. All plates were incubated for 18–20 hours, except the F. psychrophilum plates which were incubated for 72 hours.” for “growth.”

Measured: Antimicrobial Activity MIC

CC[C@H](C)[C@H](NC(=O)CN)C(=O)NCC(=O)N[C@@H](C)C(=O)N[C@H](C(=O)N[C@@H](CC(C)C)C(=O)N[C@@H](CCCCN)C(=O)N[C@H](C(=O)N[C@@H](CC(C)C)C(=O)N[C@H](C(=O)N[C@H](C(=O)NCC(=O)N[C@@H](CC(C)C)C(=O)N1CCC[C@H]1C(=O)N[C@@H](C)C(=O)N[C@@H](CC(C)C)C(=O)N[C@H](C(=O)N[C@@H](CO)C(=O)N[C@@H](Cc1c[nH]c2ccccc12)C(=O)N[C@H](C(=O)N[C@@H](CCCCN)C(=O)N[C@@H](CCCNC(=N)N)C(=O)N[C@@H](CCCCN)C(=O)N[C@@H](CCCNC(=N)N)C(=O)N[C@@H](CCC(N)=O)C(=O)N[C@@H](CCC(N)=O)C(N)=O)[C@@H](C)CC)[C@@H](C)CC)[C@@H](C)O)[C@@H](C)O)C(C)C)C(C)C [Melittin, reference compound]
16 µg/mL: [1] | [2]; 70°C, incubation 0 min (untreated control) | [2]; 90°C, incubation 0 min (untreated control) | [2]; AMP heated at 70°C for 5 min | [2]; AMP heated at 70°C for 15 min | [2]; AMP heated at 70°C for 30 min | [2]; AMP heated at 90°C for 5 min | [2]; AMP heated at 90°C for 15 min | [2]; AMP heated at 90°C for 30 min

Where two headings read alike, the source gives them in different places.
